# AlphaSeq binding of Ab-14 heavy chain variants to a spike HR2 peptide

Reference: Li et al. 2023, doi:10.1038/s41467-023-39022-2. File: FLAb, binding data.

Antigen: PDVDLGDISGINAS, a 14-residue peptide of the SARS-CoV-2 spike HR2 region.

The variants keep the light chain, the linker and the frameworks of Ab-14 (scFv order VH, the linker GGGGSGGGGSGGGGS, VL).
VH: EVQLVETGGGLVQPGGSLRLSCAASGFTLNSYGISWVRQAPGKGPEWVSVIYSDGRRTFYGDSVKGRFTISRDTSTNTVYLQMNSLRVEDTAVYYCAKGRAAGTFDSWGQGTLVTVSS
VL: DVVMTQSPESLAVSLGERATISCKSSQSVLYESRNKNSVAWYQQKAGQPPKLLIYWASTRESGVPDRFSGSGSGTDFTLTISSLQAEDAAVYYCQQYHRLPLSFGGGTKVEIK

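The parent was found by panning a naive human phage display library on the peptide. Designed CDR sequences, proposed from the first random library and measured here. Group labels follow the data file (En: ensemble of fine-tuned language models; HC: hill climbing; Gen: genetic algorithm; Gibbs: Gibbs sampling; a sequence that several methods proposed may carry one label only). The assay is AlphaSeq: two haploid yeast populations carry antibody and antigen on their surface. Mating (16 h, 30 °C) was followed by selection of diploids and sequencing of their barcodes. Each replicate has its own calibration line, from reference interactions of the BCL2 family. Each pool was mated in six replicate cultures.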

Each variant is given by its three heavy chain CDRs, as the data file delimits them; those of the parent are GFTLNSYGIS, VIYSDGRRTFYGDSVK, GRAAGTFDS. This list holds designs with more than six substitutions. Kd is apparent (estimated from mating counts) and averaged on the log scale over replicates with a signal. Smaller is tighter. "nd" marks a missing value. The strain was present, yet no cells mated with the target were sequenced in any replicate, which points to weak or no binding. Entries are sorted by rising average, undetected variants last.

Variant GFDIDEYGIS / VIYADGQRTFYADSVK / GTNAGTFDV [En_HC] gave 26 pM (6 of 6 replicates). Variant GFDLNEYGIS / VIYADGMRTYYADDVK / GQNAGTFDI [En_Gen] gave 42 pM (5 of 6 replicates). For GFDLNEYGIS / VIYADGMRTAYQDSVK / GGNAGTFDV [En_Gen], the assay gave 190 pM (6 of 6 replicates). Variant GFDLNEYGIS / VIYADGKRTAYADKVK / GTNAGTFDV [En_Gen] showed 200 pM (6 of 6 replicates). With GFDLNEYGIS / VIYADGMRTYYADDVK / GNTAGTFDI [En_Gen] the result was 200 pM (6 of 6 replicates). Variant GFDLNEYGIS / VIYADGRRSFYADSVK / GQLAGTFDQ [En_HC] gave 200 pM (6 of 6 replicates). For GFDLNEYGIS / VIYADGMRTFYTDSVK / GNEAGTFDS [En_HC], the assay gave 210 pM (6 of 6 replicates).

Variant GFDLDEYGIS / VIYADGMRTYYADSVK / GNEAGTFDV [En_Gen] showed 260 pM (6 of 6 replicates). Variant GFDLNEYGIS / VIYADGKRTAYADSVK / GNTAGTFDL [En_Gen] gave 360 pM (6 of 6 replicates). For GFDLNEYGIS / VIYADGSRTAYADNVK / GETAGTFDV [En_Gen], the assay gave 400 pM (6 of 6 replicates). Variant GFDLNEYGIS / VIYADGVRTAYVDDVK / GENAGTFDV [En_Gen] gave 470 pM (6 of 6 replicates). Variant GFNLNEYGIS / VIYADGKRTFYTDDVK / GEVAGTFDL [En_HC] gave 510 pM (6 of 6 replicates). With GFDLNEYGIS / VIYADGLRTFYTDSVK / GELAGTFDS [En_HC] the result was 530 pM (6 of 6 replicates). With GFDLNEYGIS / VIYADGRRTAYSDSVK / GQNAGTFDS [En_HC] the result was 540 pM (6 of 6 replicates).

Variant GFDLNEYGIS / VIYADGRRTFYSDSVK / GGNAGTFDQ [En_HC] showed 570 pM (6 of 6 replicates). For GFNLDEYGIS / VIYADGMRTFYSDSVK / GEVAGTFDI [En_HC], the assay gave 600 pM (6 of 6 replicates). Variant GFDINEYGIS / VIYADGMRTFYTDSVK / GGNAGTFDV [En_HC] showed 630 pM (6 of 6 replicates). Variant GFDLNEYGIS / VIYADGVRTFYADSVK / GNTAGTFDV [En_Gen] showed 650 pM (6 of 6 replicates). With GFDINEYGIS / VIYADGKRTFYADSVK / GQTAGTFDS [En_HC] the result was 760 pM (6 of 6 replicates). For GFDLDEYGIS / VIYADGKRTAYTDSVK / GNVAGTFDL [En_Gen], the assay gave 770 pM (6 of 6 replicates). With GFDLDEYGIS / VIYADGMRTAYSDSVK / GQNAGTFDI [En_Gen] the result was 790 pM (6 of 6 replicates).

For GFDLNEYGIS / VIYADGRRKVYADSVK / GNTAGTFDV [En_HC], the assay gave 1.0 nM (6 of 6 replicates). For GFDLNEYGIS / VIYADGVRTAYADSVK / GNQAGTFDM [En_Gen], the assay gave 2.0 nM (6 of 6 replicates). Variant SFNLEEYGIS / VIYADGKRSVYADSVK / GHISGWFAM [En_Gibbs] gave 2.0 nM (6 of 6 replicates). For GFDLNEYGIS / VIYADGMRTAYIDSVK / GEAAGTFDS [En_HC], the assay gave 4.2 nM (4 of 6 replicates). Variant GFDLNEYGIS / VIYADGSRTFYSDSVK / GQNAGTFDA [En_HC] gave 13 nM (6 of 6 replicates). Variant GFSLDEYGIS / VIYADGARAAYTNDFK / GNIGGVFGK [En_Gibbs] gave 31 nM (2 of 6 replicates). Variant GFNLNEYGIS / VIYADGRRTFYSDSVK / GETGGTFDV [En_HC] showed 73 nM (1 of 6 replicates).

Variant GFDIQDYGIS / VIYADGSRTAYVNSVK / GEQGATYDL [En_Gibbs] gave 390 nM (1 of 6 replicates). With GQDINEYGIS / VIYADGIRTAYAQSVK / GYHGSQFDI [En_Gibbs] the result was nd (0 of 6 replicates). With GFDLGEYGIS / VIYADGTRTAYVTKVK / GHIAGMFFT [En_Gibbs] the result was nd (0 of 6 replicates). With GADINEYGIS / VIYADGIRSAYAQDVK / GEIGSQFDI [En_Gibbs] the result was nd (0 of 6 replicates). Variant GFTLDEYGIS / VIYADGMRTQYADQVK / GLLVNTVMT [En_Gibbs] gave nd (0 of 6 replicates). Variant GFDINEYGIS / VIYADGMRTKYSESVK / GTVDESFNG [En_Gibbs] gave nd (0 of 6 replicates). For GDSLDEYGIS / VIYADGQRVQYVDPVK / GEQAGNVDV [En_Gibbs], the assay gave nd (0 of 6 replicates).

Variant GKDIEEYGVS / VIYADGKRNAYANKVK / GDNAGSFVD [En_Gibbs] gave nd (0 of 6 replicates). For GFDIQDYGIS / VIYADGSRTAYTNSVK / GVQGAFYGL [En_Gibbs], the assay gave nd (0 of 6 replicates).

A selection of 3 entries from above:

{"CDR-H1": "GFDLNEYGIS", "CDR-H2": "VIYADGRRKVYADSVK", "CDR-H3": "GNTAGTFDV", "group": "En_HC", "Kd": "1.0 nM", "seen in": "6/6"}
{"CDR-H1": "GKDIEEYGVS", "CDR-H2": "VIYADGKRNAYANKVK", "CDR-H3": "GDNAGSFVD", "group": "En_Gibbs", "Kd": "nd", "seen in": "0/6"}
{"CDR-H1": "GFNLNEYGIS", "CDR-H2": "VIYADGKRTFYTDDVK", "CDR-H3": "GEVAGTFDL", "group": "En_HC", "Kd": "510 pM", "seen in": "6/6"}

The authors' rule: three or more of the six replicates give a measured affinity, fewer mean a poor binder. Empty control strains, which show no peptide, gave a signal in 1% of pairings with all heavy chain designs; the median was 120 nM and 95% of these signals were weaker than 7.0 nM. No background was subtracted. The parent sequence was in this pool as ten entries: three were never detected, three once, and four in most replicates, with averages from 2.2 nM to 240 nM. The range of this assay differs from that of the first round, and the authors advise against merging the two.